# Data: patent publication US20240288446A1, “METHOD FOR DIAGNOSING FIBRINOLYTIC INSUFFICIENCY RELATED TO NEUTROPHIL EXTRACELLULAR TRAPS” (Hôpitaux Universitaires de Strasbourg, priority 2019, published 2024)
# Chains of the proteins cited; added tags and fusions are not shown.
# α1-proteinase inhibitor, P01009, UniProt P01009, whole entry, looked up: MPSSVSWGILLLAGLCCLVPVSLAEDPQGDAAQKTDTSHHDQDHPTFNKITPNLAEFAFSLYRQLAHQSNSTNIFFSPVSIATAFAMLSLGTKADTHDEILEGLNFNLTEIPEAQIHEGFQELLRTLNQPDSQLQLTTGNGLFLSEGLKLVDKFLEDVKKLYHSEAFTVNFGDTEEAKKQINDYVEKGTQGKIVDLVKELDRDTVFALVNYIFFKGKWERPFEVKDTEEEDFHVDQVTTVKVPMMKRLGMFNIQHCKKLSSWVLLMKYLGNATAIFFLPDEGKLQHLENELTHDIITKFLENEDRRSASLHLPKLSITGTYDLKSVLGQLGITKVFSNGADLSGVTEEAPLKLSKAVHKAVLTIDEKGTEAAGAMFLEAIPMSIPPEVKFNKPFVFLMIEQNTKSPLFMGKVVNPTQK
# Target: α1-proteinase inhibitor, P01009
protein,measurement,value
"Human neutrophil elastase (enzyme, UniProt P08246 30-247, looked up, Tested free (purified, in supernatants or in plasma) and as an HNE-DNA complex on NETs; also called HNE; leukocyte elastase) IVGGRRARPHAWPFMVSLQLRGGHFCGATLIAPNFVMSAAHCVANVNVRAVRVVLGAHNLSRREPTRQVFAVQRIFENGYDPVNLLNDIVILQLNGSATINANVQVAQLPAQGRRLGNGVQCLAMGWGLLGRNRGIASVLQELNVTVVTSLCRRSNVCTLVRGRQAGVCFGDSGSPLVCNGLIHGIASFVRGGCASGLYPDAFAPVAQFVNWIDSIIQ",activity of DNA-associated HNE (chromogenic substrate MeO-Suc-AAPV-pNA),produced only around 20% decrease in the activity of DNA-associated HNE
same,soluble HNE activity (chromogenic substrate MeO-Suc-AAPV-pNA),efficiently inhibits soluble HNE in supernatants or added to plasma
